The record followed here is patent US8470814B2, “Diazepinedione derivative” (Nippon Chemiphar Co., Ltd., priority 2009, dated 2013).

Structures can show the parent of a compound that is named as a salt.

This experiment concerns the target T1, human P2X4 receptors (Homo sapiens, UniProt Q99571).
T1 construct: expressed in transfected cells
T1 sequence (Q99571 1-388): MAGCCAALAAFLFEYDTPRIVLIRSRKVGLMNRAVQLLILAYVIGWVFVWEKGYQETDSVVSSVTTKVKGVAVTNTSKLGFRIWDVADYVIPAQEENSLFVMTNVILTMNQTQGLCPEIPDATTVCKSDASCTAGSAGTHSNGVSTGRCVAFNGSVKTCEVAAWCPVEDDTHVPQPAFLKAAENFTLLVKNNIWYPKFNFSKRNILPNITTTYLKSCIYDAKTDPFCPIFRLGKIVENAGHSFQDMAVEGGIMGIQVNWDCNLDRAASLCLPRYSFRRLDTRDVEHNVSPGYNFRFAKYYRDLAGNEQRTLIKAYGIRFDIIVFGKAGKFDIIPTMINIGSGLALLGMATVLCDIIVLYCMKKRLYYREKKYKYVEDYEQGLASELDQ
Kind of experiment: calcium influx assay (Fura-2, ATP-induced Ca2+ response) for P2X4 receptor antagonism. Format: cell-based. As to conditions: 1321N1 cells stably expressing human P2X4 receptors; 1 μM ATP; compound treated 15 min before ATP; fluorescence ratio F340/F380. The method, then: 1321N1 cells stably expressing human P2X4 receptors were adopted for calcium influx assay. P2X4/1321N1 cells were plated in 96-well assay plate and cultured 24 hours in an atmosphere of 5% CO2 at 37° C. Fura-2 AM calcium indicator dissolved in an extracellular solution for calcium imaging was loaded onto cells for 45 minutes at room temperature. The fluorescence was detected by FLUOstar Optima micro plate reader (BMG labtech). The cells were alternatively illuminated with two excitations wavelengths (340 nm and 380 nm) via xenon lamp and the emitted fluorescence was measured at 510 nm. The fluorescence changes after the treatment of 1 μM ATP were monitored and determined the fluorescence ratio (F340/F380) as the index of intracellular calcium change. Tested compounds were treated to cells 15 min before the addition of ATP and the inhibition activities of compounds were calculated by comparing the Ca^2+ response with control in the absence of tested compound.
P2X4 receptor antagonism of the compound of the present invention was measured as described below.
1321N1 cells stably expressing human P2X4 receptors were adopted for calcium influx assay. […] The fluorescence was detected by FLUOstar Optima micro plate reader (BMG labtech). The cells were alternatively illuminated with two excitations wavelengths (340 nm and 380 nm) via xenon lamp and the emitted fluorescence was measured at 510 nm. […]

What is called IC50 is the point on the concentration scale where inhibition reaches its midpoint. For `O=C1CC(=O)N(c2cccc(-c3nnn[nH]3)c2)c2ccc3ccccc3c2N1` [Example 2, 5-[3-(1H-Tetrazol-5-yl)phenyl]-1H-naphtho[1,2-b][1,4]diazepin-2,4(3H,5H)-dione potassium salt], the IC50 was found to be 380 nM.
